Assay results: PubChem BioAssay AID588856 (National Center for Advancing Translational Sciences (NCATS), 2011)
This is a selection; strong and weak results do not stand in their true shares. Activity calls are given as the source filed them. Calls come from the whole dose curve; as a rule, active = well fitted cell-killing curve with a large enough effect; inactive = no such curve, though single readings can be large or run the other way. Where a call stands in place of a potency, no number is given.

Assay: qHTS for Inhibitors of TGF-b: Cytotox Counterscreen
Conditions: HepG2 CAGA-GFP viability, ATP luminescence, 18 h; series mostly up to 46.1 µM
From the text: TGF-b is a main component in the TGF-b signaling pathway which plays diverse roles in cellular and development pathways. TGF-b is mediated by transcription factors called "Smads". Although the Smad-dependent pathway is the primary canonical TGF-b signaling mode, TGF-b1 can also activate alternative signaling pathways, including those involving MAPK (ERK, JNK and p38). This interaction may mediate or enhance Smad-dependent responses, or can exert Smad-independent effects. The complexity of this signaling cascade allows the TGF-b superfamily to perform unique, overlapping or redundant functions. We believe that targeting the TGF-beta pathway at the Smad-transcription factor level may eliminate the consequences of disrupting the entire pathway and offer specificity without affecting other signaling pathways. Smad3 is the primary transducer of TGF-b's signals and Smad3 regulates many functions attributed to TGF-b signaling. We hypothesize that Smad3 inhibitors will selectively eliminate Smad3-specific TGF-beta signals without undesired off-target effects. We aim to identify Smad3-small molecule antagonists using a quantitative high throughput screening (qHTS) approach.
A high-throughput assay was developed to screen the NIH Molecular Libraries Small Molecule Repository (MLSMR). This is a cell based assay, where TGF-b is tagged with GFP. This is a counterscreen that evaluates the cytotoxicity of the compounds that were screened in the primary cell-based screen (AID 588855).
MH087449NIH Chemical Genomics Center [NCGC]
NIH Molecular Libraries Probe Centers Network [MLPCN]
Assay Submitter (PI): Sushil Rane, National Institute of […]
Suspensions of trypsinized HEPG2 CAGA-GFP cells were dispensed into white, tissue culture-treated, solid 1536-well plates at 5uL/well (1000 cells/well final concentration) in DMEM medium supplemented with 1% FBS. Plates were incubated at 37 degrees C for 2 hours, after which 23 nL of compounds or DMSO were delivered to each well using a pin tool. One uL of recombinant TGF-beta in DMEM (1% FBS) was then dispensed (500 pg/mL final concentration), and plates were incubated at 37 degrees C for 18 hours. Two uL of CellTiter Glo (Promega), a luminescence-based viability reagent, was dispensed, followed by a 10 minute room temperature incubation. The plates were then measured on a PerkinElmer ViewLux plate reader for luminescence (clear filter) using a 5 second exposure. The %Activity was determined from the corrected luminescence values. Wells containing media only (no cells) were used to normalize %Activity of identified toxic compounds; media-only wells corresponded to 100%Activity (complete cell-killing), while DMSO-dosed cell controls were used to normalize 0%Activity (no toxicity).
Concentration-response curves were fitted to the signals arising from the resulting luminescence. The concentration-effect curves were then classified based on curve quality (r2), response magnitude and degree of measured activity, and compounds were subsequently categorized based on their curve class.
Potency is the fitted concentration of half-maximal effect.

SMILES | Potency
O=C(O)C(=O)c1ccc(N(CCCl)CCCl)cc1 | inactive
O=C(Nc1ccncc1[N+](=O)[O-])c1ccc([N+](=O)[O-])cc1[N+](=O)[O-] | inactive
O=C(COc1ccccc1)OC1CN2CCC1CC2 (configuration not stated) | inactive
COC(=O)C1(C)COP(=O)(N2CCCC2)OC1 (configuration not stated) | inactive
COP1(=S)c2c(C)nn(CCC#N)c2N=C(c2ccc(F)cc2)N1C (configuration not stated) | inactive
CCC(C)N(CC(C)C)C(=S)SC(NC(C)=O)C(Cl)(Cl)Cl (configuration not stated) | inactive
CCOP(=O)(Nc1cccc2cccnc12)OCC | inactive
CSc1ccc(Nc2c([N+](=O)[O-])cc([N+](=O)[O-])cc2[N+](=O)[O-])cc1 | active: 7.08 µM
O=C(OC1CN2CCC1CC2)c1cccc([N+](=O)[O-])c1 (configuration not stated) | inactive
CCOC(=O)c1ccc(NC(=O)C(C)(CCl)SC)cc1 (configuration not stated) | inactive
COP(=O)(OC)N1CC1c1ccccc1 (configuration not stated) | inactive
Cc1cc(SC(NC(=O)c2ccccc2)C(Cl)(Cl)Cl)nc(C(C)C)n1 (configuration not stated) | inactive
CCCCOc1ccc(C(=O)NCC2(N3CCCCC3)CCCCC2)cc1OC | inactive
O=C(O)C(O)c1ccc(N(CCCl)CCCl)cc1 (configuration not stated) | inactive
CCOC(=O)Nc1ccc([As](=O)(O)O)c(O)c1 | inactive
CC1CCNP(=O)(N(CCCl)CCCl)O1 (configuration not stated) | inactive
Cc1cc(SC(NC=O)C(Cl)(Cl)Cl)ncn1 (configuration not stated) | inactive
O=P(Nc1ccccn1)(c1cccc2ccccc12)c1cccc2ccccc12 | inactive
O=[N+]([O-])c1ccc(Nc2ccc(Oc3ccc([N+](=O)[O-])cc3[N+](=O)[O-])cc2)c([N+](=O)[O-])c1 | inactive
CCOC(=O)Nc1cccc([As](=O)(O)O)c1 | inactive
ClCCN(CCCl)c1ccc(CC2C=CC=C2)cc1 | inactive
Cc1ccc(OP(=O)(Nc2ccc([N+](=O)[O-])cn2)Oc2ccc(C)cc2)cc1 | inactive
Cc1ccc2nc3c(c(C)c2c1)CC(C(Cl)Cl)S3 (configuration not stated) | inactive
COc1cc(C(=O)NCC2(N3CCOCC3)CCCCC2)ccc1OCC(C)C | inactive

SMILES | Potency
O=[N+]([O-])c1ccc(-c2cc([N+](=O)[O-])c(O)c([N+](=O)[O-])c2)cc1 | inactive
C[As](=O)(O)c1cccc(C(=O)O)c1 | inactive
O=[As](O)(c1ccc(O)cc1)c1ccccc1O | inactive
O=[N+]([O-])c1cc([N+](=O)[O-])c(-c2ccn[nH]2)s1 | active: 15.8 µM
CCN(CC)C(=S)SC(NC=O)C(Cl)(Cl)Cl (configuration not stated) | inactive
O=C(OC1CN2CCC1CC2)c1cccc2[nH]cnc12 (configuration not stated) | inactive
CC(C)NC(=O)NP(=O)(Oc1ccccc1)Oc1ccccc1 | inactive
O=Cc1ccc(NCCCl)cc1 | inactive
ClCCSc1nnc(-c2cccnc2)o1 | inactive
CC(C)c1ccc(OP(=O)(Nc2ccccn2)Oc2ccccc2F)cc1 (configuration not stated) | inactive
COC(=O)C1(C)COP(=O)(N2CCCCCC2)OC1 (configuration not stated) | inactive
O=P1(N(CCCl)CCCl)Nc2ccccc2N1 | inactive
O=P1(N(CCCl)CCCl)OCCCN1CCCl (configuration not stated) | inactive
COc1cc(I)ccc1[As](=O)(O)O | inactive
COc1ccc2nc(NP(=O)(c3ccccc3)c3ccccc3)sc2c1 | inactive
Cc1c2c(nc3ccccc13)SC(C(Cl)Cl)C2 (configuration not stated) | inactive
Cc1cc(=O)[nH]c(N[N+](=O)[O-])n1 | inactive
O=C(OC1CN2CCC1CC2)C12CC3CC(CC(C3)C1)C2 (configuration not stated) | inactive
O=[N+]([O-])c1cc(Oc2ccc([N+](=O)[O-])cc2C(F)(F)F)cc([N+](=O)[O-])c1 | inactive
COc1ccc(N/C(=N/P(=O)(N2CCOCC2)N2CCOCC2)N2CCOCC2)cc1 | inactive
O=[As](O)(c1cccc(O)c1)c1cccc(O)c1 | inactive
Cc1cccc(OCC(=O)OC2CN3CCC2CC3)c1 (configuration not stated) | inactive
O=C(OC1CN2CCC1CC2)c1ccc(Cl)cc1 (configuration not stated) | inactive
CS(=O)(=O)c1ccc(Cl)c(NC(=O)COC(=O)C(O)(c2ccccc2)c2ccccc2)c1 | inactive

SMILES | Potency
COc1cc(C(=O)NCC2(N3CCOCC3)CCCCC2)cc(Cl)c1OC(C)C | inactive
O=[As](O)(O)c1cccnc1 | inactive
CCOP(=O)(Nc1cccc2ccccc12)OCC | inactive
COc1cc(C2NCCC3(OCCO3)C2(C)C)cc(OC)c1OC (configuration not stated) | inactive
Cc1ccc(NCCc2c([N+](=O)[O-])cc([N+](=O)[O-])cc2[N+](=O)[O-])cc1 | inactive
Nc1cccc2c([As](=O)(O)O)cccc12 | inactive
CCCOP(=S)(Nc1nc(N)cc(=O)[nH]1)OCCC | inactive
O=C(O)COc1ccc([As](=O)(O)O)cc1[N+](=O)[O-] | inactive
Nc1ccccc1[As](=O)(O)c1ccccc1 | inactive
O=P(Nc1nccs1)(c1ccccc1)c1nc2ccccc2s1 (configuration not stated) | inactive
O=P(Nc1nccs1)(Oc1ccccc1)Oc1ccccc1 | inactive
CCOP1(=S)c2c(C)nn(CCC#N)c2N=C(c2ccccc2F)N1C (configuration not stated) | inactive
CS(=O)(=O)c1cc([N+](=O)[O-])c2no[n+]([O-])c2c1 | inactive
CCOP1(=S)c2c(C)nn(CCC#N)c2N=C(c2ccc(F)cc2)N1C (configuration not stated) | inactive
CN(C(=O)Cc1ccccc1)[C@@H]1CC[C@]2(CCCO2)C[C@H]1N1CCCC1 | inactive
N#CCCN(C(=O)COC(=O)C(O)(c1ccccc1)c1ccccc1)c1ccc(F)cc1 | inactive
Cc1ccccc1C(=O)O/N=C(/C(N)=O)P(=O)(OC(C)C)OC(C)C | inactive
CN(C(=O)Cc1ccc(Cl)c(Cl)c1)[C@H]1CC[C@@]2(CCCO2)C[C@@H]1N1CCCC1 | inactive
CN(C)C(=O)c1cc([N+](=O)[O-])cc2c1-c1c(cc([N+](=O)[O-])cc1[N+](=O)[O-])C2=O | active: 12.6 µM
O=[N+]([O-])c1ccc2c(c1)nnn2O | inactive
NC(=O)Nc1ccc([As](=O)(O)O)cc1 | inactive
CN(C)C1(CNC(=O)c2ccc(S(C)(=O)=O)cc2)CCCCC1 | inactive
CCCC1OP(=O)(Nc2ccccc2)OCC1CC (configuration not stated) | inactive
O=C(/C=C/c1ccccc1)OC1CN2CCC1CC2 (configuration not stated) | inactive

SMILES | Potency
COc1cc([N+](=O)[O-])ccc1[N+](=O)[O-] | inactive
Cc1ccc(C(=O)OC2CN3CCC2CC3)cc1 (configuration not stated) | inactive
CC1CCC(C(C)C)C(OP(=O)(Nc2ccccn2)c2ccccc2)C1 (configuration not stated) | inactive
Cc1nn(-c2ccccc2)c2c1P(=O)(N1CCOCC1)N(C)C(c1ccccc1)=N2 (configuration not stated) | inactive
Nc1cccc([As](=O)(O)c2ccccc2)c1 | inactive
NS(=O)(=O)c1cccc(NC(=O)COC(=O)C(O)(c2ccccc2)c2ccccc2)c1 | inactive
O=P1(Nc2ccc(Br)cn2)COc2ccccc2OC1 | inactive
Cc1ccc(OCC(=O)OC2CN3CCC2CC3)cc1 (configuration not stated) | inactive
O=[As](O)(c1cccs1)c1cccs1 | inactive
Cc1ccc(S(=O)(=O)N(CCCN)CCCc2c(C)nc(N)[nH]c2=O)cc1 | inactive
O=P1(Nc2ncccn2)COc2ccccc2OC1 | inactive
CC(C)(C)C(=O)NC(Sc1ncccn1)C(Cl)(Cl)Cl (configuration not stated) | inactive
Clc1n[nH]nc1-c1nn[nH][15n]1 | inactive
O=P1(N(CCCl)CCCl)NCCC(C(F)(F)F)O1 (configuration not stated) | inactive
CCOP(=O)(NC(=NC(C)c1ccccc1)NC(C)c1ccccc1)OCC (configuration not stated) | inactive
CCC1=CC2Cc3nc4ccc(Cl)cc4c(N)c3C(C1)C2 (configuration not stated) | inactive
O=P1(Nc2ccccn2)COc2ccccc2OC1 | inactive
CN(CCCl)Cc1cc(Cl)c(NC2=NCCN2)c(Cl)c1 | inactive
CCOP(=O)(Nc1ccc(C)cn1)OCC | inactive
CN(C(=O)Cc1ccc(Cl)c(Cl)c1)[C@@H]1CCCC[C@H]1N1CCCC1 | inactive
CC(C)/C=N\N=C(\N)N[N+](=O)[O-] | inactive
CC1(CBr)Cn2c(nc3ccccc3c2=O)S1 (configuration not stated) | inactive
COc1ccccc1CNC(=O)COC(=O)C(O)(c1ccccc1)c1ccccc1 | inactive
c1nnnn1CCn1cnnn1 | inactive

SMILES | Potency
O=P(Nc1nccs1)(c1ccccc1)c1ccccc1 | inactive
CC(C)C(=O)NC(Sc1ccccc1)C(Cl)(Cl)Cl (configuration not stated) | inactive
COc1cccc([N+](=O)[O-])c1[N+](=O)[O-] | inactive
C[C@H]1OP(=O)(Oc2ccccc2)[C@H](O)[C@H](O)[C@H]1N=[N+]=[N-] (some centres not stated) | inactive
O=P(Nc1nc2ccccc2s1)(c1ccccc1)c1ccccc1 | inactive
CN(C)C1(CNC(=O)c2ccc(Cl)c(S(N)(=O)=O)c2)CCCCC1 | inactive
O=P(Nc1ccccn1)(c1ccc(Br)cc1)c1ccc(Br)cc1 | inactive
Nc1ccc(CCCCOc2ccccc2)cc1 | inactive
COc1ccc(N)c([N+](=O)[O-])c1[N+](=O)[O-] | inactive
O=C(OC1CN2CCC1CC2)c1cccc(Cl)c1 (configuration not stated) | inactive
Nc1ccc([As](=O)(O)c2ccc([N+](=O)[O-])cc2)cc1 | inactive
C(Cc1nn[nH]n1)Cc1nn[nH]n1 | inactive
O=[As](O)(c1ccccc1)c1ccc(O)cc1 | inactive
CC(=O)NC(SC(=S)N(C)C)C(Cl)(Cl)Cl (configuration not stated) | inactive
O=[N+]([O-])c1ncn(CCn2cnc([N+](=O)[O-])n2)n1 | inactive
O=[N+]([O-])c1ccc(O)c(/C=N/Nc2ccc([N+](=O)[O-])cc2[N+](=O)[O-])c1 | inactive
C=C(COC(=O)CCC(=O)O)CC1CC(O)[C@]2(C)OC3CC4OC5C[C@]6(C)O[C@]7(C)CCC8OC9C[C@]%10(C)OC%11C(C)=CC(=O)OC%11CC%10OC9C[C@@H](C)C8OC7CC6O[C@]5(C)C/C=C\C4OC3CC2O1 (some centres not stated) | inactive
O=P1(N(CCCl)CCCl)OCCC2CCCCN21 (configuration not stated) | inactive
Cc1ccc(NP(=O)(Oc2cccc(C)c2)Oc2cccc(C)c2)nc1 | inactive
O=[N+]([O-])c1cc([N+](=O)[O-])c2nc[nH]c2c1 | inactive
c1ccc(-c2nn[nH]n2)c(-c2nn[nH]n2)c1 | inactive
